Source: ChEMBL document CHEMBL1125782, “Structure/activity studies related to 2-(3,4-dichlorophenyl)-N-methyl-N-[2-(1-pyrrolidinyl)-1-substituted- ethyl]acetamides: a novel series of potent and selective kappa-opioid agonists” (1991)

Amino acid sequences for entries named in this document (tags omitted). A change or cut given only in a name is not applied to a line headed by its entry.
UniProt P33534: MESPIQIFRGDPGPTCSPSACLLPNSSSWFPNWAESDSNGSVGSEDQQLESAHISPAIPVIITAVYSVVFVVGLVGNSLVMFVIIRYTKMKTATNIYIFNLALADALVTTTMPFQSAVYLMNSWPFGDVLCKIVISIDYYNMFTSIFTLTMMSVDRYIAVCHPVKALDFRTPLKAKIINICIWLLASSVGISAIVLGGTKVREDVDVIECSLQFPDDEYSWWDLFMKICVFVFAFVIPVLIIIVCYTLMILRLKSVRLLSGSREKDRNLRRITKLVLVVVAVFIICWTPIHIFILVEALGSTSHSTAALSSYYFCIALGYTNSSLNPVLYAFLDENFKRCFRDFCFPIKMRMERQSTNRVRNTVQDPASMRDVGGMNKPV

Assays:
[1] = target: Kappa-type opioid receptor (Mus musculus) (UniProt P33534); experiment: Agonistic activity on field stimulated mouse vas deferens preparation expressed as molar potency ratio relative to standard agonist EKC
[2] = target: Kappa-type opioid receptor (Mus musculus) (UniProt P33534); experiment: In vitro efficacy in field stimulated mouse vas deferens assay expressed as Ke for naloxone versus compound
[3] = species: Mus musculus; experiment: In vitro efficacy against naloxone, in mouse vas deferens, activity expressed as Ke values; d = Antagonism not competitive.; details: filed as antagonist
[4] = target: Kappa-type opioid receptor (Mus musculus) (UniProt P33534); experiment: In vitro efficacy against naloxone, in mouse vas deferens, activity expressed as Ke values.
[5] = target: Kappa-type opioid receptor (Mus musculus) (UniProt P33534); experiment: Molar potency ratio relative to the standard agonist EKC assayed in mouse vas deferens.
[6] = species: Mus musculus; experiment: Agonistic activity on field stimulated mouse vas deferens preparation expressed as molar potency ratio relative to standard agonist EKC; c = Weak antagonist, Ke = 530 nM.; details: filed as antagonist
[7] = species: Mus musculus; experiment: In vitro efficacy against naloxone, in mouse vas uM; details: filed as antagonist

Work on `CC(C)[C@@H](CN1CCCC1)N(C)C(=O)Cc1ccc(F)c(F)c1` yielded a Potency ratio [1] of 0.1.

Work on `CCN(CC)C[C@H](C(C)C)N(C)C(=O)Cc1ccc(Cl)c(Cl)c1` yielded a Ke [2] of 14.2 nM and a Potency ratio [1] of 0.3.

Molecule `CC(C)[C@@H](CN1CCCC1)N(C)C(=O)CCc1ccccc1` has a Potency ratio [1] of 2.

`COc1ccc(CC(=O)N(C)[C@H](CN2CCCC2)C(C)C)cc1` gave a Ke [2] of 14.3 nM and a Potency ratio [1] of 0.06.

`CC(C)[C@@H](CN1CCCC1)N(C)C(=O)Cc1ccc(C#N)cc1` gave a Ke [2] of 16.5 nM and a Potency ratio [1] of 0.08.

In the case of `CC(C)C[C@@H](CN1CCCC1)N(C)C(=O)Cc1ccc(Cl)c(Cl)c1`, the Ke [3] is reported as “Non-competitive antagonist”.

In the case of `C=CCN(C)C[C@H](c1ccccc1)N(C)C(=O)Cc1ccc(Cl)c(Cl)c1`, the Ke [2] is reported as 11.8 nM and the Potency ratio [1] is reported as 10.3.

Molecule `CC(C)[C@@H](CN1CCCC1)N(C)C(=O)CSc1ccccc1` has a Ke [2] of 15.2 nM and a Potency ratio [1] of 0.63.

In the case of `CN(C(=O)Cc1ccc(Cl)c(Cl)c1)C1CCCCC1N1CCCC1` (stereo not given), the Ke [4] is reported as 15.5 nM and the Potency ratio [5] is reported as 0.11.

`CC(=O)Nc1cccc(C(CN2CCCC2)N(C)C(=O)Cc2ccc(Cl)c(Cl)c2)c1` (stereo not given) was tested, and the Potency ratio [1] was 21.4.

Molecule `CC(C)[C@@H](CN1CCCC1)N(C)C(=O)COc1ccccc1` has a Ke [2] of 21.8 nM and a Potency ratio [1] of 1.7.

For `CC(C)[C@@H](CN(C)Cc1ccccc1)N(C)C(=O)Cc1ccc(Cl)c(Cl)c1`, the Potency ratio [6] was “Partial antagonist”.

With `CC(C)[C@@H](CN1CCCC1)N(C)C(=O)Cc1ccc(C(F)(F)F)cc1` the Ke [2] was 15.5 nM and the Potency ratio [1] was 0.97.

`CC(C)[C@@H](CN1CCCC1)N(C)C(=O)Cc1ccccc1` gave a Potency ratio [1] of 0.016.

`CC(C)[C@@H](CN1CCCC1)N(C)C(=O)Cc1cccc(Cl)c1` gave a Ke [4] of 12.1 nM and a Potency ratio [5] of 0.49.

Work on `CNC[C@H](C(C)C)N(C)C(=O)Cc1ccc(Cl)c(Cl)c1` yielded a Potency ratio [1] of 0.003.

`CC(C)[C@@H](CN1CCCC1)N(C)C(=O)Cc1ccc(Cl)cc1` showed a Ke [4] of 16.3 nM and a Potency ratio [5] of 0.4.

`CC(C)[C@@H](CN(C)C(C)C)N(C)C(=O)Cc1ccc(Cl)c(Cl)c1` was tested, and the Ke [2] was 15.1 nM and the Potency ratio [1] was 3.84.

Work on `CCN(C(=O)Cc1ccccc1)[C@H](CN1CCCC1)C(C)C` yielded a Ke [2] of 16 nM and a Potency ratio [1] of 0.07.

With `CC(C)[C@@H](CN1CCCC1)N(C)C(=O)Cc1ccc([N+](=O)[O-])cc1` the Ke [2] was 16.9 nM and the Potency ratio [1] was 0.24.

`CC(C)[C@@H](CN1CCCC1)NC(=O)Cc1ccccc1` showed a Potency ratio [1] of 0.08.

For `CN(C(=O)Cc1ccc(Cl)c(Cl)c1)[C@@H](CN1CCCC1)c1ccccc1`, the Ke [7] was “Partial antagonist”.

With `CCCN(C(=O)Cc1ccccc1)[C@H](CN1CCCC1)C(C)C` the Potency ratio [1] was 0.021.

In the case of `CC(C)[C@@H](CN(C)C)N(C)C(=O)Cc1ccc(Cl)c(Cl)c1`, the Ke [2] is reported as 27.2 nM and the Potency ratio [1] is reported as 0.32.

For `CCCN(C)C[C@H](C(C)C)N(C)C(=O)Cc1ccc(Cl)c(Cl)c1`, the Ke [2] was 8.9 nM and the Potency ratio [1] was 1.18.
